# Target: PDE10 from pig striatum (Sus scrofa, UniProt A0A287B941)
# By UniProt entry, the sequences of proteins in these tests, tags left out. Residues count along the entry.
# UniProt A0A287B941, 1-1069: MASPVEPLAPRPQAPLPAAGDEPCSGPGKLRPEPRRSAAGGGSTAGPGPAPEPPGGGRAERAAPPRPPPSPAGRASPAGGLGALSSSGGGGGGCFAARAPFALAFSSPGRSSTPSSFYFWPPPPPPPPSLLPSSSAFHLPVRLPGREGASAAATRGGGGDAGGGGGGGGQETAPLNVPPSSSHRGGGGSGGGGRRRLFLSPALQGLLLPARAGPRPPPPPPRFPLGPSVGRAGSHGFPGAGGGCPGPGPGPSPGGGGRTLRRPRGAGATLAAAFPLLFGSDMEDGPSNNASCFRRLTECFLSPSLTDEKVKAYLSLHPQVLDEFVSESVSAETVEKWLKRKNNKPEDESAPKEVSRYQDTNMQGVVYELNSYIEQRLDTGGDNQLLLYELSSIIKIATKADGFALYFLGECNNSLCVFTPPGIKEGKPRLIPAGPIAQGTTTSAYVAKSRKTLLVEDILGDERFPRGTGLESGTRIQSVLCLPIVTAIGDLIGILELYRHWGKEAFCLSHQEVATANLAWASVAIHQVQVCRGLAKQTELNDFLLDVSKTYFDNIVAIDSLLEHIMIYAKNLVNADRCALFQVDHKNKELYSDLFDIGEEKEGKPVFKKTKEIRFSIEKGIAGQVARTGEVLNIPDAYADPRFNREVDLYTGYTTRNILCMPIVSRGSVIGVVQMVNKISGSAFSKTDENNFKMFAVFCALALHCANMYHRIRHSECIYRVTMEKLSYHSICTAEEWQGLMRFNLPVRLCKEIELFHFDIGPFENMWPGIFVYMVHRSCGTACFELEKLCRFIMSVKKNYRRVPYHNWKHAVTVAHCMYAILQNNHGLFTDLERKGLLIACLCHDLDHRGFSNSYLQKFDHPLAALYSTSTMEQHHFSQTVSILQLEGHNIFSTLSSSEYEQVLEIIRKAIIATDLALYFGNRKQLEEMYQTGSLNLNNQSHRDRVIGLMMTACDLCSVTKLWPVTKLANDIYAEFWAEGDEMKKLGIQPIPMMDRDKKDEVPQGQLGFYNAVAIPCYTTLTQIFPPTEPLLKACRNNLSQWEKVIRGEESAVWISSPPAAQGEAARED
# Assay: Inhibition of PDE10 from pig striatum ([3H]-cAMP SPA)
# Format: biochemical
# Settings: read-out: Inhibition of PDE10 from pig IC50; pig striatum preparation; 0.1 μM [3H]-cAMP; 37° C., 30 minutes
compound,measurement,value
CCCc1nc(C)c2c[n+]([O-])c3ccc(OC)nc3n12,IC50,23 nM
